From US9145426B2, “Pyrrolidine-fused thiadiazine dioxide compounds as BACE inhibitors, compositions, and their use” (Merck Sharp & Dohme Corp., priority 2011, dated 2015)

Amino acid sequences for entries named in this document (tags omitted). Residues count along the entry.
UniProt P56817, 75-416: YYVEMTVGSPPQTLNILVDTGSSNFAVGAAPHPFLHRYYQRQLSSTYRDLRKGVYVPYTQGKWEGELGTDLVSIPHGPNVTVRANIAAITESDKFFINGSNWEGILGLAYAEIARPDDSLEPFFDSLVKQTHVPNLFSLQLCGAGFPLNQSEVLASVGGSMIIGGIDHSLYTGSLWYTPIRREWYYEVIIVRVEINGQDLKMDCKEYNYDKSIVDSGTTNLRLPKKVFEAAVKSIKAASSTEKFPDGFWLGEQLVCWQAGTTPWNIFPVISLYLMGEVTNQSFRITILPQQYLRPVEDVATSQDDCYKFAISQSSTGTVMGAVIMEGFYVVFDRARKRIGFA

Target: soluble human BACE1 catalytic domain (Homo sapiens (Human), UniProt P56817)
Assay: BACE1 HTRF FRET Assay
Type: biochemical
Settings: calculated from IC50 using the Cheng-Prusoff equation; read-out: BACE-1 Ki
Source text: Na^+-Acetate pH 5.0; 1% Brij-35; Glycerol; Dimethyl Sulfoxide (DMSO); Recombinant human soluble BACE1 catalytic domain (>95% pure); APP Swedish mutant peptide substrate (QSY7-APP^swe-Eu): QSY7-[…]-Europium-amide.
A homogeneous time-resolved FRET assay was used to determine IC50 values for inhibitors of the soluble human BACE1 catalytic domain. This assay monitored the increase of 620 nm fluorescence that resulted from BACE1 cleavage of an APPswedish APP^swe mutant peptide FRET substrate (QSY7-[…]-Europium-amide). This substrate contained an N-terminal QSY7 moiety that served as a quencher of the C-terminal Europium fluorophore (620 nm Em). In the absence of enzyme activity, 620 nm fluorescence was low in the assay and increased linearly over 3 hours in the presence of uninhibited BACE1 enzyme. Inhibition of BACE1 cleavage of the QSY7-APP^swe-Eu substrate by inhibitors was manifested as a suppression of 620 nm fluorescence.
Reactions were initiated by addition of 10 μl of 600 nM QSY7-APP^swe-Eu substrate (200 nM final) to give a final reaction volume of 30 μl in a 384 well Nunc HTRF plate. The reactions were incubated at 30° C. for 1.5 hours. The 620 nm fluorescence was then read on a Rubystar HTRF plate reader (BMG Labtechnologies) using a 50 […]s delay followed by a 400 millisecond acquisition time window. […]

Ki [nM]	SMILES
86	COc1cccc(N2CC3C(c4ccccc4)(C2)NC(=N)N(C)S3(=O)=O)n1 (racemic) [Ex. 14]
42	COc1nc(N2CC3C(c4ccccc4)(C2)NC(=N)N(C)S3(=O)=O)nc(C2CC2)c1F (racemic) [Ex. 16]
